US20230270828A1, “COMPOSITION FOR USE IN THE TREATMENT OF VIRAL INFECTIONS” (BICT S.R.L., priority 2020, published 2023)

Tested on: Vero cells (Monkey Kidney Epithelial Cells)

## polylysine [PREP 3]
  CC50: 560 ± 210 µg/mL
  maximum nontoxic concentration (assumed): 0.4 mg/mL
